Results as given in paper PMC6852655 (International Journal of Cancer, 2019).

Tests used:
PC-3 cells = details: postirradiation treatment; cited from earlier work
PC-3 xenografts = experiment: Experimental in vivo therapy; design: species or system BALB/c nu/nu mice; details: 6 cycles iv every second day; n=11-12

Substance: trastuzumab: anti-HER2 monoclonal antibody [reference compound]
- PC-3 cell survival in vitro (PC-3 cells): twofold decrease
- Median survival compared with controls (PC-3 xenografts): same median survival as the mice in vehicle group
